Assay results taken from patent US9227956B2 (Pfizer Inc., priority 2013, dated 2016).

The molecules below were run on human PCSK9 (assay: PCSK9 AlphaLISA assay, PCSK9 lowering in WT7 cells). Details: WT7 cells (Huh7 stably over-expressing human PCSK9); secreted PCSK9 by AlphaLISA; overnight incubation (16-24 h); top concentration 20 μM; read-out: Cell Based PCSK9 IC50.
Excerpt: An in-vitro AlphaLISA assay (Perkin Elmer) was developed in order to quantitate the level of PCSK9 secreted into the cell culture media following compound treatment. To detect and measure PCSK9 protein an in-house generated anti-PCSK9 antibody was coupled to AlphaLISA acceptor beads by an external vendor (PerkinElmer) and a second internally developed anti-PCSK9 antibody with an epiptope distinct from that of the acceptor beads was biotinylated in house. Streptavidin coated-donor beads (Perkin Elmer) are also included in the assay mixture which then binds the biotinylated anti-PCSK9 antibody and in the presence of PCSK9 this donor complex and acceptor beads are brought into close proximity. […] The ability of compound to modulate PCSK9 protein levels in conditioned media by AlphaLISA was assessed in the human hepatocellular carcinoma cell line Huh7, stably over-expressing human PCSK9. […] Following plasmid transfection the stable WT7 clone was identified and maintained under Zeocin selection. Compound screening was performed in 384-well plates where WT7 cells were plated at a density of 7500 cells per well in 20 μL of tissue culture media containing compound in an eleven point, 0.5 log dilution format at a high treatment concentration of 20 μM in a final volume of 0.5% DMSO. In additional to these test compound conditions each screening plate also included wells that contained 20 μM puromycin as a positive assay control defined as high percent effect, HPE, as well as wells containing media in 0.5% DMSO as a negative treatment control defined as zero percent effect, ZPE. After overnight compound incubation (16-24 h) the tissue culture media was collected and an aliquot from each sample was transferred to individual wells of a 384-well white Optiplate (Perkin Elmer). The coupled antibodies and donor beads were added to the assay plates in a buffer composed of 30 mM Tris pH 7.4, 0.02% Tween-20 and 0.02% Casein. Anti-PCSK9 acceptor beads (final concentration of 10 μg/mL) and anti-PCSK9 biotinylated antibody (final concentration of 3 nM) were added and incubated for 30 minutes at room temperature followed by the addition of the streptavidin donor beads (final concentration 40 μg/mL) for an additional 60 minutes. Additionally a standard curve was generated where AlphaLISA reagents were incubated in wells spiked with recombinant human PCSK9 diluted in tissue culture media from 5000 ng/mL to 0.6 ng/mL. […] The test compound data were converted into percent effect, using the ZPE and HPE controls as 0% and 100% activity, respectively. The equation used for converting each well reading into percent effect was:
[formula] IC50 was then calculated and reported as the midpoint in the percent effect curve in molar units and the values are reported under the Cell Based PCSK9 IC50 (μM) column header within Table 1 Biological Data. Additionally, to monitor the selectivity of compound response for PCSK9 the level of a second secreted protein, Transferrin, was measured from the same conditioned media treated with test compound by AlphaLISA. […] To detect and quantify effects on Transferrin 0.01 mL of the culture media was transferred to a 384-well white Optiplate and 0.01 mL of media was added to bring the volume to 0.02 ml. Anti-Transferrin acceptor beads were added to a final concentration of 10 μg/mL, biotinylated anti-Transferrin at 3 nM and streptavidin donor beads at 40 μg/mL. Percent effect and IC50 for Transferrin was computed in a similar manner as that described for PCSK9.

IC50	SMILES
> 19.4 µM	Cc1cccnc1N(C(=O)c1ccc(-c2cnn(C)c2-c2nnn(C(C)OC(=O)OC(C)C)n2)cc1)[C@@H]1CCCNC1 (single isomer, unassigned) [Example 38]
0.8 µM	Cc1cnc2c(c1)nnn2-c1ccc(C(=O)N(c2ncccc2Cl)[C@@H]2CCCNC2)cc1 [Example 3, N-(3-chloropyridin-2-yl)-4-(6-methyl-3H-[1,2,3]triazolo[4,5-b]pyridin-3-yl)-N-[(3R)-piperidin-3-yl]benzamide]
1.5 µM	O=C(c1ccc(-n2nnc3cccnc32)cn1)N(c1ncccc1Cl)[C@@H]1CCCNC1 [Example 5, N-(3-chloropyridin-2-yl)-N-[(3R)-piperidin-3-yl]-5-(3H-[1,2,3]triazolo[4,5-b]pyridin-3-yl)pyridine-2-carboxamide]
1.5 µM	CCOC(=O)c1c(-c2ccc(C(=O)N(c3ncccc3Cl)[C@@H]3CCCNC3)cc2)cnn1C [Example 6, ethyl 4-(4-{(3-chloropyridin-2-yl)[(3R)-piperidin-3-yl]carbamoyl}phenyl)-1-methyl-1H-pyrazole-5-carboxylate]
1.8 µM	Cc1cnc2c(c1)nnn2-c1ccc(C(=O)N(c2ncccc2Cl)[C@@H]2CCCNC2)nc1 [Example 9, N-(3-chloropyridin-2-yl)-5-(6-methyl-3H-[1,2,3]triazolo[4,5-b]pyridin-3-yl)-N-[(3R)-piperidin-3-yl]pyridine-2-carboxamide]
11.7 µM	CCOC(=O)OC(C)OC(=O)c1c(-c2ccc(C(=O)N(c3nccc4ccccc34)[C@@H]3CCCNC3)cc2)cnn1C (stereo partly drawn) [Example 11, 1-[(ethoxycarbonyl)oxy]ethyl 4-(4-{isoquinolin-1-yl[(3R)-piperidin-3-yl]carbamoyl}phenyl)-1-methyl-1H-pyrazole-5-carboxylate]
0.8 µM	O=C(c1ccc(-n2nnc3cccnc32)cc1)N(c1ncccc1Cl)[C@@H]1CCCNC1 [Example 16, N-(3-chloropyridin-2-yl)-N-[(3R)-piperidin-3-yl]-4-(3H-[1,2,3]triazolo[4,5-b]pyridin-3-yl)benzamide]
